PubChem BioAssay (NCI)
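Method: 48-hour compound exposure of cells in 96-well plates, five concentrations, linear interpolation of endpoints. Abbreviation: GI50, concentration required for 50% inhibition of growth. The concentration for full growth arrest is given as TGI.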

Legend:
Test in all cases: NCI-60 cell line screen, 48 h
TK-10 renal = tested on: TK-10 renal
SNB-19 CNS = tested on: SNB-19 CNS
SK-MEL-28 melanoma = tested on: SK-MEL-28 melanoma
HT29 colon = tested on: HT29 colon
CCRF-CEM leukemia = tested on: CCRF-CEM leukemia
OVCAR-8 ovarian = tested on: OVCAR-8 ovarian
NCI-H226 lung = tested on: NCI-H226 lung
IGROV1 ovarian = tested on: IGROV1 ovarian
SW-620 colon = tested on: SW-620 colon
SK-MEL-2 melanoma = tested on: SK-MEL-2 melanoma
MDA-MB-435 = tested on: MDA-MB-435
ACHN renal = tested on: ACHN renal
A549 NSCLC = tested on: A549 NSCLC
U251 CNS = tested on: U251 CNS
MALME-3M melanoma = tested on: MALME-3M melanoma
SR leukemia = tested on: SR leukemia
EKVX NSCLC = tested on: EKVX NSCLC
MOLT-4 leukemia = tested on: MOLT-4 leukemia
MDA-N = tested on: MDA-N
K-562 leukemia = tested on: K-562 leukemia
NCI-H322M lung = tested on: NCI-H322M lung
LOX IMVI melanoma = tested on: LOX IMVI melanoma
UACC-62 melanoma = tested on: UACC-62 melanoma
A498 renal = tested on: A498 renal
OVCAR-3 ovarian = tested on: OVCAR-3 ovarian
PC-3 prostate = tested on: PC-3 prostate
OVCAR-4 ovarian = tested on: OVCAR-4 ovarian
BT-549 breast = tested on: BT-549 breast
OVCAR-5 ovarian = tested on: OVCAR-5 ovarian
MDA-MB-231 breast = tested on: MDA-MB-231 breast
T-47D breast = tested on: T-47D breast
SK-MEL-5 melanoma = tested on: SK-MEL-5 melanoma
NCI-H460 lung = tested on: NCI-H460 lung
UO-31 renal = tested on: UO-31 renal
HL-60(TB) leukemia = tested on: HL-60(TB) leukemia
HOP-62 NSCLC = tested on: HOP-62 NSCLC
UACC-257 melanoma = tested on: UACC-257 melanoma
RXF 393 renal = tested on: RXF 393 renal
NCI/ADR-RES ovarian = tested on: NCI/ADR-RES ovarian
M14 melanoma = tested on: M14 melanoma
HCC-2998 colon = tested on: HCC-2998 colon
SF-268 CNS = tested on: SF-268 CNS
CAKI-1 renal = tested on: CAKI-1 renal
HCT-15 colon = tested on: HCT-15 colon
NCI-H23 lung = tested on: NCI-H23 lung
SF-295 CNS = tested on: SF-295 CNS
NCI-H522 lung = tested on: NCI-H522 lung
SN12C renal = tested on: SN12C renal
KM12 colon = tested on: KM12 colon
HS 578T breast = tested on: HS 578T breast
HCT-116 colon = tested on: HCT-116 colon
786-0 renal = tested on: 786-0 renal
HOP-92 NSCLC = tested on: HOP-92 NSCLC
DU-145 prostate = tested on: DU-145 prostate

NS(=O)(=O)Cc1ccc([As](=O)(O)O)cc1 gave a GI50 (TK-10 renal) of over 100 µM, a TGI (TK-10 renal) of over 100 µM and a GI50 (SNB-19 CNS) of over 100 µM. For the same molecule, the TGI (SNB-19 CNS) was over 100 µM, the GI50 (SK-MEL-28 melanoma) was over 100 µM and the TGI (SK-MEL-28 melanoma) was over 100 µM. For the same molecule, the GI50 (HT29 colon) was over 100 µM, the TGI (HT29 colon) was over 100 µM and the GI50 (CCRF-CEM leukemia) was over 100 µM. The TGI (CCRF-CEM leukemia) was over 100 µM, the GI50 (OVCAR-8 ovarian) was over 100 µM and the TGI (OVCAR-8 ovarian) was over 100 µM. For the same molecule, the GI50 (NCI-H226 lung) was over 100 µM, the TGI (NCI-H226 lung) was over 100 µM and the GI50 (IGROV1 ovarian) was over 100 µM. The TGI (IGROV1 ovarian) was over 100 µM, the GI50 (SW-620 colon) was over 100 µM and the TGI (SW-620 colon) was over 100 µM. It also gave a GI50 (SK-MEL-2 melanoma) of over 100 µM, a TGI (SK-MEL-2 melanoma) of over 100 µM and a GI50 (MDA-MB-435) of over 100 µM. The TGI (MDA-MB-435) was over 100 µM, the GI50 (ACHN renal) was over 100 µM and the TGI (ACHN renal) was over 100 µM. The GI50 (A549 NSCLC) was over 100 µM, the TGI (A549 NSCLC) was over 100 µM and the GI50 (U251 CNS) was over 100 µM. The TGI (U251 CNS) was over 100 µM, the GI50 (MALME-3M melanoma) was over 100 µM and the TGI (MALME-3M melanoma) was over 100 µM. The GI50 (SR leukemia) was over 100 µM, the TGI (SR leukemia) was over 100 µM and the GI50 (EKVX NSCLC) was over 100 µM. The TGI (EKVX NSCLC) was over 100 µM, the GI50 (MOLT-4 leukemia) was over 100 µM and the TGI (MOLT-4 leukemia) was over 100 µM. For the same molecule, the GI50 (MDA-N) was over 100 µM, the TGI (MDA-N) was over 100 µM and the GI50 (K-562 leukemia) was over 100 µM. The TGI (K-562 leukemia) was over 100 µM, the GI50 (NCI-H322M lung) was over 100 µM and the TGI (NCI-H322M lung) was over 100 µM. The GI50 (LOX IMVI melanoma) was over 100 µM, the TGI (LOX IMVI melanoma) was over 100 µM and the GI50 (UACC-62 melanoma) was over 100 µM. The TGI (UACC-62 melanoma) was over 100 µM, the GI50 (A498 renal) was over 100 µM and the TGI (A498 renal) was over 100 µM. For the same molecule, the GI50 (OVCAR-3 ovarian) was over 100 µM, the TGI (OVCAR-3 ovarian) was over 100 µM and the GI50 (PC-3 prostate) was over 100 µM. For the same molecule, the TGI (PC-3 prostate) was over 100 µM, the GI50 (OVCAR-4 ovarian) was over 100 µM and the TGI (OVCAR-4 ovarian) was over 100 µM. The GI50 (BT-549 breast) was over 100 µM, the TGI (BT-549 breast) was over 100 µM and the GI50 (OVCAR-5 ovarian) was over 100 µM. It also gave a TGI (OVCAR-5 ovarian) of over 100 µM, a GI50 (MDA-MB-231 breast) of over 100 µM and a TGI (MDA-MB-231 breast) of over 100 µM. For the same molecule, the GI50 (T-47D breast) was over 100 µM, the TGI (T-47D breast) was over 100 µM and the GI50 (SK-MEL-5 melanoma) was over 100 µM. It also gave a TGI (SK-MEL-5 melanoma) of over 100 µM, a GI50 (NCI-H460 lung) of over 100 µM and a TGI (NCI-H460 lung) of over 100 µM. For the same molecule, the GI50 (UO-31 renal) was over 100 µM, the TGI (UO-31 renal) was over 100 µM and the GI50 (HL-60(TB) leukemia) was over 100 µM. For the same molecule, the TGI (HL-60(TB) leukemia) was over 100 µM, the GI50 (HOP-62 NSCLC) was over 100 µM and the TGI (HOP-62 NSCLC) was over 100 µM. It also gave a GI50 (UACC-257 melanoma) of over 100 µM, a TGI (UACC-257 melanoma) of over 100 µM and a GI50 (RXF 393 renal) of over 100 µM. It also gave a TGI (RXF 393 renal) of over 100 µM, a GI50 (NCI/ADR-RES ovarian) of over 100 µM and a TGI (NCI/ADR-RES ovarian) of over 100 µM. The GI50 (M14 melanoma) was over 100 µM, the TGI (M14 melanoma) was over 100 µM and the GI50 (HCC-2998 colon) was over 100 µM. It also gave a TGI (HCC-2998 colon) of over 100 µM, a GI50 (SF-268 CNS) of over 100 µM and a TGI (SF-268 CNS) of over 100 µM. It also gave a GI50 (CAKI-1 renal) of over 100 µM, a TGI (CAKI-1 renal) of over 100 µM and a GI50 (HCT-15 colon) of over 100 µM. It also gave a TGI (HCT-15 colon) of over 100 µM, a GI50 (NCI-H23 lung) of over 100 µM and a TGI (NCI-H23 lung) of over 100 µM. It also gave a GI50 (SF-295 CNS) of over 100 µM, a TGI (SF-295 CNS) of over 100 µM and a GI50 (NCI-H522 lung) of over 100 µM. It also gave a TGI (NCI-H522 lung) of over 100 µM, a GI50 (SN12C renal) of over 100 µM and a TGI (SN12C renal) of over 100 µM. For the same molecule, the GI50 (KM12 colon) was over 100 µM, the TGI (KM12 colon) was over 100 µM and the GI50 (HS 578T breast) was over 100 µM. For the same molecule, the TGI (HS 578T breast) was over 100 µM, the GI50 (HCT-116 colon) was over 100 µM and the TGI (HCT-116 colon) was over 100 µM. It also gave a GI50 (786-0 renal) of over 100 µM, a TGI (786-0 renal) of over 100 µM and a GI50 (HOP-92 NSCLC) of over 100 µM. It also gave a TGI (HOP-92 NSCLC) of over 100 µM, a GI50 (DU-145 prostate) of over 100 µM and a TGI (DU-145 prostate) of over 100 µM.
